Measured values from publication PMC12102759 (Protein Science : A Publication of the Protein Society, 2025).

System: YES SH3
Type: binding, human

Row | Sequence | PSSM value of the single amino acid variant (DMS by phage display)
1 | TSSIQSRPLPSPPKFT I4D (TSSDQSRPLPSPPKFT) | 0.01426
2 | TSSIQSRPLPSPPKFT I4E (TSSEQSRPLPSPPKFT) | 0.05255
3 | TSSIQSRPLPSPPKFT I4F (TSSFQSRPLPSPPKFT) | 0.0116
4 | TSSIQSRPLPSPPKFT I4G (TSSGQSRPLPSPPKFT) | 0.04896
5 | TSSIQSRPLPSPPKFT I4H (TSSHQSRPLPSPPKFT) | 0.03323
6 | TSSIQSRPLPSPPKFT I4I | 0.05653
7 | TSSIQSRPLPSPPKFT I4K (TSSKQSRPLPSPPKFT) | 0.05417
8 | TSSIQSRPLPSPPKFT I4L (TSSLQSRPLPSPPKFT) | 0.01916
9 | TSSIQSRPLPSPPKFT I4M (TSSMQSRPLPSPPKFT) | 0.005742
10 | TSSIQSRPLPSPPKFT I4N (TSSNQSRPLPSPPKFT) | 0.02291
11 | TSSIQSRPLPSPPKFT I4P (TSSPQSRPLPSPPKFT) | 0.2275
12 | TSSIQSRPLPSPPKFT I4Q (TSSQQSRPLPSPPKFT) | 0.03082
13 | TSSIQSRPLPSPPKFT I4R (TSSRQSRPLPSPPKFT) | 0.004571
14 | TSSIQSRPLPSPPKFT I4S (TSSSQSRPLPSPPKFT) | 0.1384
15 | TSSIQSRPLPSPPKFT I4T (TSSTQSRPLPSPPKFT) | 0.1326
16 | TSSIQSRPLPSPPKFT I4V (TSSVQSRPLPSPPKFT) | 0.0204
17 | TSSIQSRPLPSPPKFT I4W (TSSWQSRPLPSPPKFT) | 0.06569
18 | TSSIQSRPLPSPPKFT I4Y (TSSYQSRPLPSPPKFT) | 0.0009824
19 | TSSIQSRPLPSPPKFT K14A (TSSIQSRPLPSPPAFT) | 0.02167
20 | TSSIQSRPLPSPPKFT K14D (TSSIQSRPLPSPPDFT) | 0.05842
21 | TSSIQSRPLPSPPKFT K14E (TSSIQSRPLPSPPEFT) | 0.02138

Row | Sequence | PSSM value of the single amino acid variant (DMS by phage display)
22 | TSSIQSRPLPSPPKFT K14F (TSSIQSRPLPSPPFFT) | 0.01106
23 | TSSIQSRPLPSPPKFT K14G (TSSIQSRPLPSPPGFT) | 0.0198
24 | TSSIQSRPLPSPPKFT K14H (TSSIQSRPLPSPPHFT) | 0.1187
25 | TSSIQSRPLPSPPKFT K14I (TSSIQSRPLPSPPIFT) | 0.1182
26 | TSSIQSRPLPSPPKFT K14K | 0.007071
27 | TSSIQSRPLPSPPKFT K14L (TSSIQSRPLPSPPLFT) | 0.09563
28 | TSSIQSRPLPSPPKFT K14M (TSSIQSRPLPSPPMFT) | 0.1324
29 | TSSIQSRPLPSPPKFT K14N (TSSIQSRPLPSPPNFT) | 0.01714
30 | TSSIQSRPLPSPPKFT K14P (TSSIQSRPLPSPPPFT) | 0.01361
31 | TSSIQSRPLPSPPKFT K14Q (TSSIQSRPLPSPPQFT) | 0.008096
32 | TSSIQSRPLPSPPKFT K14R (TSSIQSRPLPSPPRFT) | 0.01492
33 | TSSIQSRPLPSPPKFT K14S (TSSIQSRPLPSPPSFT) | 0.09233
34 | TSSIQSRPLPSPPKFT K14T (TSSIQSRPLPSPPTFT) | 0.09645
35 | TSSIQSRPLPSPPKFT K14V (TSSIQSRPLPSPPVFT) | 0.09876
36 | TSSIQSRPLPSPPKFT K14W (TSSIQSRPLPSPPWFT) | 0.01378
37 | TSSIQSRPLPSPPKFT K14Y (TSSIQSRPLPSPPYFT) | 0.04051
38 | TSSIQSRPLPSPPKFT L9A (TSSIQSRPAPSPPKFT) | 0.0126
39 | TSSIQSRPLPSPPKFT L9D (TSSIQSRPDPSPPKFT) | 0
40 | TSSIQSRPLPSPPKFT L9E (TSSIQSRPEPSPPKFT) | 0
41 | TSSIQSRPLPSPPKFT L9F (TSSIQSRPFPSPPKFT) | 0
42 | TSSIQSRPLPSPPKFT L9G (TSSIQSRPGPSPPKFT) | 0

Row | Sequence | PSSM value of the single amino acid variant (DMS by phage display)
43 | TSSIQSRPLPSPPKFT L9H (TSSIQSRPHPSPPKFT) | 0
44 | TSSIQSRPLPSPPKFT L9I (TSSIQSRPIPSPPKFT) | 0.2099
45 | TSSIQSRPLPSPPKFT L9K (TSSIQSRPKPSPPKFT) | 0.01436
46 | TSSIQSRPLPSPPKFT L9L | 0.3626
47 | TSSIQSRPLPSPPKFT L9M (TSSIQSRPMPSPPKFT) | 0.2832
48 | TSSIQSRPLPSPPKFT L9N (TSSIQSRPNPSPPKFT) | 0
49 | TSSIQSRPLPSPPKFT L9P (TSSIQSRPPPSPPKFT) | 0
50 | TSSIQSRPLPSPPKFT L9Q (TSSIQSRPQPSPPKFT) | 0
51 | TSSIQSRPLPSPPKFT L9R (TSSIQSRPRPSPPKFT) | 0
52 | TSSIQSRPLPSPPKFT L9S (TSSIQSRPSPSPPKFT) | 0.01833
53 | TSSIQSRPLPSPPKFT L9T (TSSIQSRPTPSPPKFT) | 0
54 | TSSIQSRPLPSPPKFT L9V (TSSIQSRPVPSPPKFT) | 0.09901
55 | TSSIQSRPLPSPPKFT L9W (TSSIQSRPWPSPPKFT) | 0
56 | TSSIQSRPLPSPPKFT L9Y (TSSIQSRPYPSPPKFT) | 0
57 | TSSIQSRPLPSPPKFT P8A (TSSIQSRALPSPPKFT) | 0.01992
58 | TSSIQSRPLPSPPKFT P8D (TSSIQSRDLPSPPKFT) | 0.0302
59 | TSSIQSRPLPSPPKFT P8E (TSSIQSRELPSPPKFT) | 0.01785
60 | TSSIQSRPLPSPPKFT P8F (TSSIQSRFLPSPPKFT) | 0.002354
61 | TSSIQSRPLPSPPKFT P8G (TSSIQSRGLPSPPKFT) | 0.05758
62 | TSSIQSRPLPSPPKFT P8H (TSSIQSRHLPSPPKFT) | 0.02625
63 | TSSIQSRPLPSPPKFT P8I (TSSIQSRILPSPPKFT) | 0.1683

Row | Sequence | PSSM value of the single amino acid variant (DMS by phage display)
64 | TSSIQSRPLPSPPKFT P8K (TSSIQSRKLPSPPKFT) | 0.005237
65 | TSSIQSRPLPSPPKFT P8L (TSSIQSRLLPSPPKFT) | 0.02363
66 | TSSIQSRPLPSPPKFT P8M (TSSIQSRMLPSPPKFT) | 0.09866
67 | TSSIQSRPLPSPPKFT P8N (TSSIQSRNLPSPPKFT) | 0.04035
68 | TSSIQSRPLPSPPKFT P8P | 0.1354
69 | TSSIQSRPLPSPPKFT P8Q (TSSIQSRQLPSPPKFT) | 0.02961
70 | TSSIQSRPLPSPPKFT P8R (TSSIQSRRLPSPPKFT) | 0.02901
71 | TSSIQSRPLPSPPKFT P8S (TSSIQSRSLPSPPKFT) | 0.03937
72 | TSSIQSRPLPSPPKFT P8T (TSSIQSRTLPSPPKFT) | 0.03806
73 | TSSIQSRPLPSPPKFT P8V (TSSIQSRVLPSPPKFT) | 0.1254
74 | TSSIQSRPLPSPPKFT P8W (TSSIQSRWLPSPPKFT) | 0.05669
75 | TSSIQSRPLPSPPKFT P8Y (TSSIQSRYLPSPPKFT) | 0.05615
76 | TSSIQSRPLPSPPKFT P10A (TSSIQSRPLASPPKFT) | 0.01332
77 | TSSIQSRPLPSPPKFT P10D (TSSIQSRPLDSPPKFT) | 0
78 | TSSIQSRPLPSPPKFT P10E (TSSIQSRPLESPPKFT) | 0
79 | TSSIQSRPLPSPPKFT P10F (TSSIQSRPLFSPPKFT) | 0
80 | TSSIQSRPLPSPPKFT P10G (TSSIQSRPLGSPPKFT) | 0
81 | TSSIQSRPLPSPPKFT P10H (TSSIQSRPLHSPPKFT) | 0.01042
82 | TSSIQSRPLPSPPKFT P10I (TSSIQSRPLISPPKFT) | 0
